Screening results (PubChem)
Nrf2 ARE act – activators of Nrf2 (ARE) signaling; hit rate 0.31% among 410,000; AREc32 ARE-luciferase reporter (MCF7-derived line), luminescence, 24 h; Potency, µM (titrated, usually from 46.1 µM), inactives show at the highest dose activation, most hits filed as activators; also: potency is read from the fitted curve at half-maximal effect; % of control where 0% means no effect; nearly all actives have a fitted effect of over 65% in size
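AREc32 cells carrying an ARE-driven firefly luciferase reporter were seeded at 1000 cells/well in OPTI-MEM with 5% FBS, then exposed to compound for 24 hr at 37 deg C. Luminescence was read with Steady-Glo after 30 min at RT.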
ClpP mod – qHTS Assay for Activators of ClpP; purified B. subtilis ClpP, FRET peptide cleavage, 20 min; Potency, µM (highest dose often 57.5 µM), for inactives: top-dose activity change, negative = active; hit rate 1.9% among 340,000; AID 651965, 2013; active = well fitted falling curve with a large enough effect; inconclusive = small, poorly fitted or top-dose-only effect; inactive = no such curve, though single readings can be large or run the other way; also: potency is read from the fitted curve at half-maximal effect; the source files actives as falling curves though it sought activators and does not explain the sign; nearly all actives have a fitted effect of over 65% in size
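Purified B. subtilis ClpP, 10 microg/mL final in Tris/HCl pH8 with KCl, BSA, glycerol and Tween-20, cleaved an Abz/nitrotyrosine-quenched decapeptide. Fluorescence (ex 320, em 430) was read at 0 and 20 min at room temperature. Delta was normalized to 5.8 microM ADEP and DMSO/no-enzyme controls.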
miR-21 reporter – raises the signal of a miR-21 reporter | HeLa miR-21 FLuc reporter, luciferase, 48 h | Potency, µM (highest dose often 38.3 µM), for inactives: at the highest dose reporter change, positive = more light | 340,000 tested, under 10 active | AID 2288; active = well fitted rising curve with a large enough effect; inconclusive = small, poorly fitted or top-dose-only effect; inactive = no such curve, though single readings can be large or run the other way;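 also: % of control where 0% means no effect; miR-21 action dims this reporter so a rising signal means less miR-21 action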
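HeLa cells stably expressing CMV-driven firefly luciferase with a downstream miR-21 binding sequence, endogenously expressing miR-21, were treated with titrations (up to about 40uM final) for 48 hours at 37 degree Celsius. Luciferase luminescence was read after lysis.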
Nrf2 inh – blocks Nrf2 signaling | A549 ARE-Fluc reporter, luciferase luminescence, 18-24 h | Potency, µM (series often up to 46 µM), for the others: top-dose activity change, negative = inhibition, hits mostly inhibitors | hit rate 2.1% among 360,000; also: potency is read from the fitted curve at half-maximal effect; % is scaled to controls: 0 for no effect and ±100 for the full control effect; nearly all actives have a fitted effect of over 60% in size
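Two sequential reads on A549 ARE_Fluc cells exposed to compound for 18-24 h: a CellTiter-Fluor fluorescence read for viability, then a luciferase luminescence read for Nrf2/ARE activity.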
A549 viability – A549 cytotoxicity, counter-screen for Nrf2 inhibitors; A549 ARE-Fluc cells, CellTiter-Fluor viability, 18-24 h; Potency, µM (top dose mostly 46 µM), for inactives: at the top dose activity change, negative = cytotoxicity, most hits filed as inhibitors; hit rate 0.16% among 390,000; AID 504648; also: potency is read from the fitted curve at half-maximal effect; % is scaled to controls: 0 for no effect and ±100 for the full control effect
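A549 ARE-Fluc cells in 5% FBS OPTI-MEM, 5000 cells/well, rested 2 h then exposed to compounds in concentration-response for 18-24 h at 37 °C. Viability by CellTiter-Fluor fluorescence (Ex 405/Em 525) after 30 min; luciferase luminescence (BugLite, 15 min, RT) read afterwards.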
TCR act – activators of T cell receptors; primary human leukocytes, anti-CD3, IL-2 HTRF, 48 h; Potency, µM (top dose mostly 9.22 µM), inactives show at the highest dose activation of IL-2 secretion, actives largely listed as activators; 330,000 tested, under 10 active; also: % of control where 0% means no effect
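Primary human leukocytes receive a-CD3 beads and test compound and are incubated 48 hr. Secreted IL-2 is then assayed by HTRF, measuring 665nm acceptor emission after 320nm excitation of the europium donor.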
Numbers without * were called inactive; ? = inconclusive; . = no result; [ ] = another dose, or the depositor's remark. Most compounds without a hit are left out; they make up all but 3.7% or so of the library. Unless noted, calls follow the shape of the dose curve; as a rule, active = well fitted curve in the direction sought with a large enough effect; inconclusive = small, poorly fitted or top-dose-only effect, or another doubt; inactive = no such curve, though single readings can be large; an effect the other way counts as inactive or inconclusive.

Every second line gives: Nrf2 ARE act	ClpP mod	miR-21 reporter	Nrf2 inh	A549 viability	TCR act
- Cc1nc(-c2ccc(F)cc2)c(CC(=O)Nc2ccc(C)c(S(=O)(=O)N3CCOCC3)c2)s1
  -0.8%	.	2.2%	18.4µM*	-5.6%	0.0%
- Cc1ccc(NC(=O)COc2ccc(-c3nnco3)cc2)cc1S(=O)(=O)N1CCOCC1
  -0.2%	.	14.6%	23.1µM*	0.7%	0.5%
- CCN(CC)S(=O)(=O)c1cccc(NC(=O)CC2CCCC2)c1
  -0.8%	.	0.7%	-3.4%	7.2%	2.5%
- Cc1ccc(NC(=O)CNc2cccc(Br)c2)cc1S(=O)(=O)N1CCOCC1
  -0.5%	-0.8%	.	20.6µM*	?	3.9%
- CCCc1nnc(SCC(=O)NC2CCCCC2)n1CCOC
  0.2%	.	-0.7%	5.0%	?	4.8%
- CCN(CC)S(=O)(=O)c1ccc(C)c(NC(=O)CNc2cccc(S(=O)(=O)N3CCCC3)c2)c1
  0.3%	-1.8%	.	?	-16.6%	-2.8%
- O=C(Nc1cccc(C(F)(F)F)c1)Nc1ccc2snnc2c1
  -1.2%	-3.2%	?	20.6µM*	?	.
- O=C(CNc1cccc(S(=O)(=O)N2CCCC2)c1)Nc1ccc(F)c(F)c1
  0.7%	-3.6%	.	25.9µM*	-28.1%	-3.5%
- Cc1ccc(NC(=O)CNc2cccc(S(=O)(=O)N3CCCC3)c2)cc1F
  0.1%	1.6%	.	?	-5.4%	0.9%
- Cc1ccc(NCC(=O)Nc2cccc(S(=O)(=O)N(C)C)c2)cc1S(=O)(=O)N1CCCCCC1
  -0.5%	-7.8%	.	8.2µM*	?	-4.1%
- CCN(CC)S(=O)(=O)c1cccc(NC(=O)CNc2cccc(S(=O)(=O)N3CCCC3)c2)c1
  -0.1%	-7.5%	23.8%	25.9µM*	?	-1.7%
- CCN(CC)C(=O)c1nn(-c2ccc(OC)cc2)c(=O)c2c(N)scc12
  .	.	.	-6.7%	-5.1%	.
- Cc1ccc(NS(=O)(=O)c2cc(NC(=O)c3ccc4c(c3)NC(=O)CS4)ccc2Cl)c(C)c1
  -1.2%	-12.5%	?	7.31µM*	?	-2.0%
- COc1ccc(NC(=O)c2ccc3c(c2)NC(=O)CS3)cc1
  1.2%	2.3%	.	-9.8%	-1.6%	6.9%
- O=C(N/N=C/c1cccc(C(F)(F)F)c1)c1cc2c(s1)-c1ccccc1CC2
  7.3%	?	-1.5%	.	11.5%	-2.0%
- Cc1cccc(/C=N/NC(=O)c2cc3c(s2)-c2ccccc2CC3)c1
  3.4%	28.2µM*	0.2%	-20.1%	-11.5%	-3.0%
- COC(=O)C1=CN(Cc2ccc(OC)cc2)C=C(C(=O)OC)C1c1cccs1
  4.2%	.	-0.9%	-1.9%	-7.6%	-1.9%
- COC(=O)C1=CN(CCCN2CCCC2=O)C=C(C(=O)OC)C1c1cccs1
  -0.3%	28.2µM*	2.1%	-1.1%	.	1.1%
- CCc1cccc2c(C(=O)COC(=O)c3ccccc3)c[nH]c12
  4.8%	-22.3%	-75.8%	?	-0.1%	0.5%[46.1 µM]
- CCc1cccc2c(C(=O)COC(=O)c3nccnc3N)c[nH]c12
  2.3%	28.2µM*	.	?	-6.1%	6.2%
- CCN(CC)C(=O)CSc1nnc(SC(C)C(=O)NC2CC2)s1 (stereo unspecified)
  -0.6%	-3.1%	.	-2.8%	-1.6%	-5.4%
- COc1cc(/C=N/Nc2nc(Nc3ccc(C)cc3)nc(-n3nc(C)cc3C)n2)cc(OC)c1OC
  3.0%	28.2µM*	13.3%	?	-17.4%	2.0%
- COC(=O)c1sc(N2C(=O)C(O)=C(C(=O)c3ccc(C)o3)C2c2cccs2)nc1C (stereo unspecified)
  28.3%	-4.0%	-12.9%	20.6µM*	?	6.5%
- Cc1ccnc(OC(C(=O)O)C(OCc2ccccc2)(c2ccccc2)c2ccc(C(F)(F)F)cc2)n1 (stereo unspecified)
  -0.3%	-1.4%	24.6%	10.3µM*	-18.3%	-3.1%
- Cc1cc([N+](=O)[O-])ccc1NCc1cccc2ccccc12
  2.8%	-4.9%	.	14.6µM*	?	1.5%
